The source of these data is US9782415B2, “Substituted pyrazolo[1,5-a]pyrimidine compounds as Trk kinase inhibitors” (Array BioPharma, Inc., priority 2009, dated 2017).

Chains of the proteins cited; added tags and fusions are not shown. Residues count along the entry.
UniProt P04629, 440-796: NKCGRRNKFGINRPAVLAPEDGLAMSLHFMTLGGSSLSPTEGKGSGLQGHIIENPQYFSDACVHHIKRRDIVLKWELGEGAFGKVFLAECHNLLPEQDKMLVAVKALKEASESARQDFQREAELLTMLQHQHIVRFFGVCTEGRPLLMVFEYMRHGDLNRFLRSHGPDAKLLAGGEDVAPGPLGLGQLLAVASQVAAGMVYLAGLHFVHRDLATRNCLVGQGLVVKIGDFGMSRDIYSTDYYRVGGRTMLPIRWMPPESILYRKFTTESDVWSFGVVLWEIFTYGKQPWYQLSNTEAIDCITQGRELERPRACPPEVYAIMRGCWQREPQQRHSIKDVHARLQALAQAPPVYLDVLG

By IC50 is commonly meant the concentration needed to halve the response being measured.

This experiment addresses histidine-tagged recombinant human TrkA, cytoplasmic domain (Homo sapiens (Human), UniProt P04629). Description: TrkA ELISA Assay. To be noted: Table 2. It is filed as biochemical. On the procedure:
An enzyme-linked immunosorbant assay (ELISA) was used to assess TrkA kinase activity in the presence of inhibitors. […] The assay buffer consisted of 25 mM MOPS pH 7.5, 0.005% (v/v) Triton X-100 and 5 mM MgCl2. The reaction mixture was removed from the plate by washing with PBS containing 0.1% (v/v) Tween 20. […] After the addition of 1M phosphoric acid, the chromogenic substrate color intensity was quantitated via absorbance at 450 nm.
(In general: ELISA stands for enzyme-linked immunosorbent assay.)

For `Cc1ncc(F)cc1[C@H]1CCCN1c1ccn2ncc(C(=O)N[C@H]3CC[C@H](O)CC3)c2n1` [Example 194, 5-((R)-2-(5-fluoro-2-methylpyridin-3-yl)pyrrolidin-1-yl)-N-((trans)-4-hydroxycyclohexyl)pyrazolo[1,5-a]pyrimidine-3-carboxamide], the IC50 amounted to 4.6 nM.
